Assay results: publication PMC8967833, “An original approach to measure ligand/receptor binding affinity in non-purified samples” (Scientific Reports, 2022)

Amino acid sequences for entries named in this document (tags omitted). A change or cut given only in a name is not applied to a line headed by its entry.
UniProt P14416, whole entry: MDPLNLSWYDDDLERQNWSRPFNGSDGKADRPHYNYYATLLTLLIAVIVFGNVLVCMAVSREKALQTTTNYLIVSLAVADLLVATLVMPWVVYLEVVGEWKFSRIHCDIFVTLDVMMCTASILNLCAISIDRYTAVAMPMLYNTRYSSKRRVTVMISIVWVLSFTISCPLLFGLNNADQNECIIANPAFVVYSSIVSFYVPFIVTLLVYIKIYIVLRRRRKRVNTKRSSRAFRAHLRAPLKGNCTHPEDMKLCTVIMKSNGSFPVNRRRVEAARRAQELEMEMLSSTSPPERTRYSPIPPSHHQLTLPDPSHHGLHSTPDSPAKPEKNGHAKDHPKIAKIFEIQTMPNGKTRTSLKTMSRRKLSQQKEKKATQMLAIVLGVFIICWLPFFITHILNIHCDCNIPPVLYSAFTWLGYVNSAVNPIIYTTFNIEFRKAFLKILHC

Target: T1, dopamine D2 receptor (D2R) (Homo sapiens, UniProt P14416)
T1 construct: gene DRD2; D2R in non-purified membrane fragments of induced HekD2 cells
Experiment: MST saturation binding with fluorescent ligand on cell membrane fragments, non-specific binding subtracted

Kd: 5.3 ± 1.7 nM
Substance: spiperone—Cy5
